“And” between values parts separate entries of the source, which are not always exact repeats. Equal values may be shown once. Read-outs that look alike come from different tables or passages of the source.
System: MAO-B
Assay type: in vivo, Macaca fascicularis
Conditions: for occupancy at MAO-B ([^18F]GEH200449 binding sites): 45 min before radioligand
Method: Each PET measurement was performed on a separate experimental day. Experiments conducted in the same NHP were separated by at least 6 weeks. Baseline PET measurements were initially undertaken in each of the five NHPs.
Time curves for regional [^18F]GEH200449 binding at baseline were analyzed by kinetic modeling using 1-TC and 2-TC models,[32] and VT as outcome measures. Akaike information criterion[33] and F statistics were applied to select the preferred model. Regional estimates of VT for [^18F]GEH200449 were also obtained using the Logan linear graphical method[34] with t* fixed at 40 min. The analyses were performed using the kinetic modeling tool in PMOD v. 4.3. Occupancy at [^18F]GEH200449 binding sites was estimated based on regional VT values obtained by the Logan method at baseline and after drug administration according to a graphical procedure described in the literature.[22]

C#CCN(C)[C@H](C)Cc1ccccc1 [L-deprenyl]
occupancy at MAO-B ([^18F]GEH200449 binding sites) (0.5 mg/kg IV, NHP #4, graphical analysis of VT): 97% and > 80% | effect on [^18F]GEH200449 binding, displacement (0.5 mg/kg administered 25 min after radioligand injection): markedly reduced | occupancy at MAO-B ([^18F]GEH200449 binding sites) (1.0 mg/kg IV, NHP #1, graphical analysis of VT): 82% and > 80% | effect on [^18F]GEH200449 regional radioactivity (pretreatment 45 min before radioligand injection): inhibited
